Test results as given in ChEMBL document CHEMBL1140833, “Potent heteroarylpiperidine and carboxyphenylpiperidine 1-alkyl-cyclopentane carboxamide CCR2 antagonists” (Bioorg Med Chem Lett, 2008).

Sequences of proteins named here, by UniProt entry; tags and fusion partners are left off. A change or cut given only in a name is not applied to a line headed by its entry.
UniProt Q12809: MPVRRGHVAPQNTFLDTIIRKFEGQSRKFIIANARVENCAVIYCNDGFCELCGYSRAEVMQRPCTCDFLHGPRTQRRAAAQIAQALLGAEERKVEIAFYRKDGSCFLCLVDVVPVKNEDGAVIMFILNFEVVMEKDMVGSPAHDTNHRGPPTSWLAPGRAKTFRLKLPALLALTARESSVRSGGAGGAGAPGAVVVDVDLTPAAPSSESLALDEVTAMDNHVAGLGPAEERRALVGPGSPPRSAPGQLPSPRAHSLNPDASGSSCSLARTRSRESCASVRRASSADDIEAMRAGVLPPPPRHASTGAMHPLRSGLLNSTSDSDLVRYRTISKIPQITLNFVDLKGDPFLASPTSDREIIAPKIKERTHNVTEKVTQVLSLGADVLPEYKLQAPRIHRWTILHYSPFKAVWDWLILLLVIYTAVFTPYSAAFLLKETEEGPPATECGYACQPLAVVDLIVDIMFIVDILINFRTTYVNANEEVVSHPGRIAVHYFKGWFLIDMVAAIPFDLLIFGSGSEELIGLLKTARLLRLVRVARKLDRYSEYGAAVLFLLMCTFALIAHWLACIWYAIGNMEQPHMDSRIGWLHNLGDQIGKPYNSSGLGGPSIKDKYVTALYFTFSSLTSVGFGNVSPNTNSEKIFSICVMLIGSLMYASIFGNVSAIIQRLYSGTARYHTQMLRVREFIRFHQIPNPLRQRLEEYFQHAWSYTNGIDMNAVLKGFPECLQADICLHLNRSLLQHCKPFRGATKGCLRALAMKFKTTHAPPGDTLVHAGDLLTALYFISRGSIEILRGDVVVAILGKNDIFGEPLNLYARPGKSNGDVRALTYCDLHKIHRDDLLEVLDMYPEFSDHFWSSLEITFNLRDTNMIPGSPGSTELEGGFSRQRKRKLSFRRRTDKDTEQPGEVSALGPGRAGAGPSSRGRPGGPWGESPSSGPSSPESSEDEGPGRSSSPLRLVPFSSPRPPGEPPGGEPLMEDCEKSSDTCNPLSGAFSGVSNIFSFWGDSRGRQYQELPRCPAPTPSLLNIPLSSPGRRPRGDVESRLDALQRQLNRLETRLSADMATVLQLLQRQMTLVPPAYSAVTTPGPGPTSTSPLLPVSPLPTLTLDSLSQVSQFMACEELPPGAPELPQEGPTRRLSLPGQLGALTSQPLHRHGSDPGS

Target: Voltage-gated inwardly rectifying potassium channel KCNH2 (Homo sapiens, UniProt Q12809)
Assay: Displacement of [[…]]MK499 from human ERG expressed in HEK cells
Assay type: cell-based, HEK293

SMILES | IC50 [nM]
CC(C)(O)[C@]1(C(=O)NCc2cc(C(F)(F)F)cc(C(F)(F)F)c2)CC[C@@H](N2CCC(c3cncnc3)CC2)C1 | 844
CC(C)[C@]1(C(=O)NCc2cc(C(F)(F)F)cc(C(F)(F)F)c2)CC[C@@H](N2CCC(c3cccnc3)CC2)C1 (relative stereo) | 224
